This test has as its target HLA-DQ3.1 (DQA1*0301/DQB1*0310), purified from PF cells (human) (UniProt P01909). Kind of test: 125I-peptide inhibition, purified class II.

The substance Ova 323-336 (peptide) registered a half-inhibitory concentration (IC50) of 577 nM.
